Data reported in US20220324909A1, “THERAPEUTIC PEPTIDES” (COHBAR, INC., priority 2019, published 2022).

By UniProt entry, the sequences of proteins in these tests, tags left out. Where a name states a change or a piece, a line headed by the entry shows the natural chain unless it says otherwise.
UniProt P35414: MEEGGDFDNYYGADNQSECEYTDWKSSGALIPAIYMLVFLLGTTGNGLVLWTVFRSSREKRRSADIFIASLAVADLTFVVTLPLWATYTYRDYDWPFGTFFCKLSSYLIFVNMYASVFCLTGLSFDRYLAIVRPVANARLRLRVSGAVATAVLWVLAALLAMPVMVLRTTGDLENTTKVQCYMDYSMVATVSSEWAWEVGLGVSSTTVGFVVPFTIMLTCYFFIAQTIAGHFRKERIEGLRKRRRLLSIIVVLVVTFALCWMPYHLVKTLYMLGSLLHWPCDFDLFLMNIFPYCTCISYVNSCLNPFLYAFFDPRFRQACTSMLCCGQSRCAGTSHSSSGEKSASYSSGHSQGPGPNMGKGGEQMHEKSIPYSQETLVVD
UniProt Q9ULZ1: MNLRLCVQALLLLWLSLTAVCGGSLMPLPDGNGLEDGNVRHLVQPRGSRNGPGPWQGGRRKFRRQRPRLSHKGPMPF

Assays:
[1] = molecular target: ProLink tagged human APJ (Apelin Receptor) in CHO-K1 AGTRL1 β-Arrestin cells (human) (UniProt P35414); experiment: cell-based or functional assay
[2] = molecular target: Apelin Receptor (APJ) stably overexpressed in CHO-K1 AGTRL1 Gi cells (human) (UniProt P35414); experiment: cell-based or functional assay

β-Arrestin recruitment, reference response (500 nM Apelin-13, positive control) (% of Apelin-13 response) [1]	cAMP levels, reference response (500 nM Pyr-Apelin-13, 10 µM forskolin) (% of Pyr-Apelin-13 response) [2]	Substance
100		Apelin-13 (from UniProt Q9ULZ1 65-77) (ligand)
	100	Pyr-Apelin-13 (from UniProt Q9ULZ1 65-77) (ligand)
